The assay addresses T1, human adenosine A3 receptor (CHO-K1-hA3R cells) (Homo sapiens, UniProt P0DMS8).
T1 construct: expressed in transfected cells
In words: Kinetic real-time cell-binding studies (LigandTracer) with [125I]-AB-MECA. To be noted: ratio k off/k on. The method, then: The assay protocol comprised repeated measurements of three points of the dedicated area in which the cells were seeded (cell pole) and three points of the opposing cell-free area (reference pole) of the petri dish as shown in Fig. 2a. Target distribution and cell attachment of the CHO-K1-hA3R cells were monitored continuously during the whole course of the binding experiment in the perimeter trace (Fig. 2b). Raw signal levels from consecutive measurements (n = 8) of a representative experiment after binding equilibrium of 0.7 nM [^125I]-AB-MECA were clearly distinguishable and determined to be 39.51 ± 0.50, 43.82 ± 0.76 and 38.69 ± 0.52 for the cell pole and 8.55 ± 0.29, 7.41 ± 0.22 and 10.74 ± 0.52 for the reference pole, respectively, which is outlined in Fig. 2b. The corresponding binding trace of the radioligand was calculated as the difference between the averaged values of the cell pole and the reference pole yielding in a stable background-corrected signal. Kinetic real-time cell-binding studies were conducted on CHO-K1-hA3R cells with [^125I]-AB-MECA at ambient temperature with LigandTracer® Grey. The experiments were started with baseline measurements 10–15 min prior radioligand incubation. Binding of [^125I]-AB-MECA to the seeded cells was realized by adding different concentrations (0.05–5 nM) to fully cover the concentration span needed for proper affinity estimation. Each dedicated concentration was incubated separately in a single petri dish, and the observed rate constants of the association reaction (kobs) were monitored in real-time until binding equilibrium. Unspecific uptake of the radioligand on the cell surface was confirmed with native CHO-K1 cells. As mentioned previously, the perimeter trace of the LigandTracer® was used to assure cell viability and attachment.
Data of the observed association phases determined in kinetic real-time cell-binding studies were transformed to start at time point zero. Transformed data were grouped together and globally fitted by using “association kinetics—two or more conc. of hot” to derive a single best-fit estimate for k on and k off as described as follows:5 Y=Ymax*1−e^−kob*x where “x” is a given time and “Y” reflects the amount of bound radioligand for a dedicated time point. “Y max” corresponds to the maximum amount of bound radioligand after equilibrium and “k ob” expresses the observed rate constant of the association reaction.
The observed rate constant of the association reaction is a function of the dedicated radioligand concentration, the association rate constant and the dissociation rate constant, which is described as follows:6 kob=kon*L+koff where “k ob” is the observed rate constant of the association reaction, “k on” represents the association rate constant, “L” reflects the radioligand concentration and “k off” indicates the dissociation rate constant. Considering Eqs. (5) and (6), best fit estimations for k on and k off can be calculated by using multiple radioligand concentrations. The resulting rate constants were used to obtain the K d as the ratio of k off/k on. An estimation of the target concentration of each single petri dish was derived by using the following equation:7 Ymax=L/L+Kd*Bmax where “Y max” is the maximum amount of bound radioligand after equilibrium and “B max” reflects the maximum amount of target receptors. “L” corresponds to the radioligand concentration and “K d” indicates the affinity of dedicated radioligand.

Protein sequences, listed by entry. Tags and fused reporters are not part of them.
UniProt P0DMS8, whole entry: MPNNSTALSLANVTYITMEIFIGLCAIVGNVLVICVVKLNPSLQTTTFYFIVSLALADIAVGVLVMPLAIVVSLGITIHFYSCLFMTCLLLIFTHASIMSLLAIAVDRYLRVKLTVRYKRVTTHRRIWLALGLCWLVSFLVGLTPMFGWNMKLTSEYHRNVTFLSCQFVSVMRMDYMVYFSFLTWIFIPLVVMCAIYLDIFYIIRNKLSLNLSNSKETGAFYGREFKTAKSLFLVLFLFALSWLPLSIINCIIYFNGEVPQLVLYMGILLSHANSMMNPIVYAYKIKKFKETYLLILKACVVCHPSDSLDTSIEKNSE

As to `CNC(=O)[C@H]1O[C@@H](n2cnc3c(NCc4ccc(N)c(I)c4)ncnc32)[C@H](O)[C@@H]1O` [[^125I]-AB-MECA, [^125I]-4-aminobenzyl-5′-N-methylcarboxamideoadenosine], the dissociation constant Kd was 0.636 ± 0.076 nM (Averaged, data from three independent experiments); 0.887 ± 0.121 nM (2 concentrations of radioligand); 0.528 ± 0.118 nM (3 concentrations of radioligand); 0.556 ± 0.132 nM (4 concentrations of radioligand); 0.704 ± 0.054 nM (5 concentrations of radioligand); 0.695 ± 0.052 nM (6 concentrations of radioligand). For the same molecule, the equilibrium dissociation constant (Kd) amounted to 0.683 ± 0.056 nM (7 concentrations of radioligand) and 0.711 ± 0.056 nM (8 concentrations (0.05–5 nM) of radioligand).

These data come from PMC5340791, “New approaches for the reliable in vitro assessment of binding affinity based on high-resolution real-time data acquisition of radioligand-receptor binding kinetics” (EJNMMI Research, 2017).
